The other results are listed elsewhere or left out.
B1: hsa-mir-3174 (structured_RNA)
RNA: GGGAACUUUGUCACCACGCCGAUUAUGAGGUGUACGAAGUUUCAGCAGCCCUGGGCUCCUCAGCAAACCUACUGGAUGCUGAAGCUUCGUGCAC
B2: hsa-mir-199a-1 (structured_RNA)
RNA: GGGAAUAGUCCGUUCUGGGAAGACUGUCGGUGUACGAAGUUUCAGCCUGUUCAGGAGGCUCUCAAUGUGUACAGCUGAAGCUUCGUGCAC
B3: hsa-mir-3928 (structured_RNA)
RNA: GGGACCCAUGAGUAUCGCCUAGUGACUUGGUGUACGAAGUUUCAGCGCCUGCGGGCAGGAAGCGGAGCUGAAGCUUCGUGCAC
B4: hsa-mir-4313 (structured_RNA)
RNA: GGGAGUAAGAGUCGGGCAUGUAAACGAGGGUGUACGAAGUUUCAGCACCCUGCAGCCCCAGCUGGAGGAUGAGGAGAUGCUGGGCUUGGGUGCUGAAGCUUCGUGCAC
B5: hsa-mir-4648 (structured_RNA)
RNA: GGGAGAGACCCGGGAAUCUCGGUAUACCGGUGUACGAAGUUUCAGCGGAGCUCAGCACCUGCCUGCCACCCACGCAGACCAGCCCCUGCUCUGUUCCCACAGGCUGAAGCUUCGUGCAC
B6: hsa-mir-7106 (structured_RNA)
RNA: GGGAAGCCUGCAAGUCGACCUCUGAACGGGUGUACGAAGUUUCAGCUGGGAGUGAUCCCAACAGCUGAGCUCCCUGCUGAAGCUUCGUGCAC
B7: hsa-mir-483 (structured_RNA)
RNA: GGGAAAGAGUAGGAUACUUAACCGGUCAGGUGUACGAAGUUUCAGCGGGAGUGGUUCCAUCACGCCUCCUCACGCUGAAGCUUCGUGCAC
B8: hsa-mir-6836 (structured_RNA)
RNA: GGGAUAAAAUGGCGGUAGGCCCCAUCUCGGUGUACGAAGUUUCAGCGCAUCCAGACAGCGGGCGAAUGCGCUGAAGCUUCGUGCAC
B9: hsa-mir-4436a (structured_RNA)
RNA: GGGAGACGGUUCCAUUGAGGUCGGUGACGGUGUACGAAGUUUCAGCCUGCCCCUCGAAUCUGCUCCACGAUUUGGGCAGGCUGAAGCUUCGUGCAC
B10: hsa-mir-6890 (structured_RNA)
RNA: GGGACAUAAUGGAGUUAGGUCCGAAACCGGUGUACGAAGUUUCAGCUAGGGCUGGAUGGUAGGGCCCAGCUGAAGCUUCGUGCAC
B11: hsa-mir-4690 (structured_RNA)
RNA: GGGAAUCGAGGCUCACAAUUCCCUGGAAGGUGUACGAAGUUUCAGCCUGAACCCGUGGGUGAGGAGUGCAGGCUGAAGCUUCGUGCAC

Each binder was assayed against U1A (Homo sapiens, UniProt P09012) (assay: FOREST: bead pull-down of RNA structure library v1, barcode microarray; U1A/LIN28A: 20 mM HEPES pH 7.5, 80 mM KCl, 20 mM NaCl, 10% glycerol, 2 mM DTT, 0.1 ug/uL BSA, 4 C; BG4/CIRBP/DHX36: 10 mM Tris-HCl pH 7.5, 100 mM KCl (or LiCl),; high values mean tight binding).

Question: How did the binding signal turn out when B1 was run?
Answer: 0.194 z-score

Question: With B2 as the binder, how does the binding signal read?
Answer: 0.194 z-score

Question: For B3, which binding signal is on record?
Answer: 0.192 z-score

Question: How did the binding signal turn out when B4 was run?
Answer: 0.191 z-score

Question: With B5 as the binder, how does the binding signal read?
Answer: 1.86 z-score

Question: How did the binding signal turn out when B6 was run?
Answer: 0.191 z-score

Question: Which binding signal does the source give for B7 here?
Answer: 0.19 z-score

Question: With B8 as the binder, how does the binding signal read?
Answer: 0.19 z-score

Question: How did the binding signal turn out when B9 was run?
Answer: 0.189 z-score

Question: With B10 as the binder, how does the binding signal read?
Answer: 0.189 z-score

Question: B11 was tested. Which binding signal did it give?
Answer: 0.188 z-score

What follows are binders tested against T1, LIN28A (human?, UniProt Q9H9Z2 1-209) in the same assay as above.
T1 sequence: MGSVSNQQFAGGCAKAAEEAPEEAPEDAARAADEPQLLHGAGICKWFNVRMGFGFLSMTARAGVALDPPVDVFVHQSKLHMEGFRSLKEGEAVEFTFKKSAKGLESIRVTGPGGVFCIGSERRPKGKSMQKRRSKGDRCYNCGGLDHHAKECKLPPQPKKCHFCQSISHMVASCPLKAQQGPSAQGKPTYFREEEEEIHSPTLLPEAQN

Question: For B1, which binding signal is on record?
Answer: -2.17 z-score

Question: Which binding signal does the source give for B2 here?
Answer: 2.65 z-score

Question: For B3, which binding signal is on record?
Answer: 0.976 z-score

Question: B4 was tested. Which binding signal did it give?
Answer: 2.04 z-score

Question: For B5, which binding signal is on record?
Answer: -0.804 z-score

Question: With B6 as the binder, how does the binding signal read?
Answer: -1.74 z-score

Question: How did the binding signal turn out when B7 was run?
Answer: -0.463 z-score

Question: Which binding signal does the source give for B8 here?
Answer: -0.301 z-score

Question: For B9, which binding signal is on record?
Answer: -0.606 z-score

Question: B10 was tested. Which binding signal did it give?
Answer: 1.57 z-score

Question: For B11, which binding signal is on record?
Answer: 2.02 z-score

Each binder was assayed against T2, CIRBP (Homo sapiens, UniProt Q14011 1-172) in the same assay as above.
T2 sequence: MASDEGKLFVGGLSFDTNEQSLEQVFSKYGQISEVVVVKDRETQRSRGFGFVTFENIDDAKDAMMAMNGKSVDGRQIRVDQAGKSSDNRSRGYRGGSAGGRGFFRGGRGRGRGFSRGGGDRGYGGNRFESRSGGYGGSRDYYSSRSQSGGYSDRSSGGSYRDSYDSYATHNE

Question: How did the binding signal turn out when B1 was run?
Answer: -0.806 z-score

Question: For B2, which binding signal is on record?
Answer: -0.663 z-score

Question: B3 was tested. Which binding signal did it give?
Answer: 0.292 z-score

Question: With B4 as the binder, how does the binding signal read?
Answer: -0.232 z-score

Question: For B5, which binding signal is on record?
Answer: -1.87 z-score

Question: For B6, which binding signal is on record?
Answer: -1.46 z-score

Question: B7 was tested. Which binding signal did it give?
Answer: -0.044 z-score

Question: How did the binding signal turn out when B8 was run?
Answer: -1.21 z-score

Question: B9 was tested. Which binding signal did it give?
Answer: -1.35 z-score

Question: B10 was tested. Which binding signal did it give?
Answer: 1.78 z-score

Question: Which binding signal does the source give for B11 here?
Answer: 0.0304 z-score

The binders below were run against T3, DHX36 (Homo sapiens, UniProt Q9H2U1 1-1008) in the same assay as above.
T3 sequence: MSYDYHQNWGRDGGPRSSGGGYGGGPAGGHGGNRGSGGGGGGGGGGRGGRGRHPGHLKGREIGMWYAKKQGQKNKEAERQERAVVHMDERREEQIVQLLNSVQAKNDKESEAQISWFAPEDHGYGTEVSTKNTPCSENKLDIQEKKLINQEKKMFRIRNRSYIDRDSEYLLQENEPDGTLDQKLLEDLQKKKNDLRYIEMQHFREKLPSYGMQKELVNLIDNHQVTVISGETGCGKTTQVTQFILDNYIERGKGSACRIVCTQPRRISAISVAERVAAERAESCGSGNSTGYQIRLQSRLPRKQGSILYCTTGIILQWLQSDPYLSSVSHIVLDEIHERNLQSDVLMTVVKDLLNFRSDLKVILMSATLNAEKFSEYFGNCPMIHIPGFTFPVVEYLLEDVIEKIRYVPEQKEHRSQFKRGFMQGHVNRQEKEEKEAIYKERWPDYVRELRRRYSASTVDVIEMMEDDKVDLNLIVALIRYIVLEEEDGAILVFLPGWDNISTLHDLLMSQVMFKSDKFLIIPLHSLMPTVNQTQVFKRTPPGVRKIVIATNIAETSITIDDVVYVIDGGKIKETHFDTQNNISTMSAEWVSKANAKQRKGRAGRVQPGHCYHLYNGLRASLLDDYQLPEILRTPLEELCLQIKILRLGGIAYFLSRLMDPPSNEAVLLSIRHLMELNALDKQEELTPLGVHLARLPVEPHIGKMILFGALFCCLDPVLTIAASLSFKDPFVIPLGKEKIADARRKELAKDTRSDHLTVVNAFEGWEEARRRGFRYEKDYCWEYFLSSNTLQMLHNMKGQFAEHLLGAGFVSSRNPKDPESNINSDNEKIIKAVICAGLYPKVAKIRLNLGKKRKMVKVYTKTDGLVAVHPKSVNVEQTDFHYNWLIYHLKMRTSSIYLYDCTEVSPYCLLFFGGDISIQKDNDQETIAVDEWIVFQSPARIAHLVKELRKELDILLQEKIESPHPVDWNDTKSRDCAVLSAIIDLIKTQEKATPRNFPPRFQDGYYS

Question: How did the binding signal turn out when B1 was run?
Answer: -1.04 z-score

Question: Which binding signal does the source give for B2 here?
Answer: -0.586 z-score

Question: For B3, which binding signal is on record?
Answer: 0.933 z-score

Question: B4 was tested. Which binding signal did it give?
Answer: 2.19 z-score

Question: Which binding signal does the source give for B5 here?
Answer: -0.621 z-score

Question: With B6 as the binder, how does the binding signal read?
Answer: 0.0765 z-score

Question: How did the binding signal turn out when B7 was run?
Answer: -0.36 z-score

Question: For B8, which binding signal is on record?
Answer: -0.347 z-score

Question: Which binding signal does the source give for B9 here?
Answer: 0.463 z-score

Question: B10 was tested. Which binding signal did it give?
Answer: 1.82 z-score

Question: For B11, which binding signal is on record?
Answer: 1.1 z-score

From PMC7723054
